The other results are listed elsewhere or left out.

In this assay the test system is A. baumannii ATCC 17978. Kind of assay: relative growth (fraction of control); higher = less inhibition. To be noted: 50 µM.
As for `O=C(C[C@@H]1CC[C@@H]2[C@H](COC[C@H](O)CN2S(=O)(=O)c2cccc(Cl)c2)O1)NCc1ccncn1`, the relative growth was 0.886.
`O=C(C[C@H]1C=C[C@H](NC(=O)c2ccc(F)cc2)[C@H](CO)O1)NCc1ccncn1` came in with a relative growth of 1.2.
The figure for `COc1cc2ccc(=O)oc2c(OC)c1OC` is 1.03; for `NC(N)=Nc1nc(CSCC/C(N)=N\S(N)(=O)=O)cs1` it is 0.954; for `O=C(O)CCC(=O)O.O=C(O[C@H]1CN2CCC1CC2)N1CCc2ccccc2[C@@H]1c1ccccc1` it is 0.825.
`CCN(CC)CCNC(=O)c1cc(S(C)(=O)=O)ccc1OC.Cl` displayed a relative growth of 1.01.
`CC(C)Cn1c(N)cc(=O)n(C)c1=O`: the relative growth turned out to be 0.887.
`CC(C)c1ccc2c(ccc[n+]2C)c1` returned a relative growth of 0.951.
In the case of `O=C(O[C@@H]1Cc2c(O)cc(O)cc2O[C@@H]1c1cc(O)c(O)c2c(=O)c(O)cc([C@H]3Oc4cc(O)cc(O)c4C[C@H]3O)c-2c1)c1cc(O)c(O)c(O)c1` it was 0.737; in that of `COCCn1c(=NN)[nH]c2ccsc2c1=O`, 0.993; in that of `C#CCCCCCCCCCCCC(O)CC(O)CO` (centres undefined), 0.839.
`O=C(N/N=C/c1ccc(CO)o1)c1ccccn1` displayed a relative growth of 1.03.
`Nc1nc(=S)c2ncn([C@@H]3O[C@H](CO)[C@@H](O)[C@H]3O)c2[nH]1` gave a relative growth of 0.944.
On to `COc1cc(OC)c(CN(CC#CCOC(=O)NCCCCCC(=O)NO)S(=O)(=O)c2ccccc2[N+](=O)[O-])c(OC)c1`, for which the relative growth worked out at 1.07.
In turn, `CO[C@@H](CN(C)C(=O)c1ccc2c(c1)OCO2)[C@@H](C)CN([C@H](C)CO)S(=O)(=O)c1ccc(Cl)cc1` returned a relative growth of 0.906.
In the case of `CC(C)Cc1ccc([C@@H](C)C(=O)Nc2ccc(Cl)cc2)cc1`, the relative growth was determined as 1.01.
As for `Cc1cc(SCc2ccc(F)cc2)c(C)cc1Cl`, the relative growth turned out to be 0.94.
In the case of `CC(C)C(=O)NNC(=O)c1ccccc1O` it was 1.09.
In turn, `COc1ccc(OCC(=O)NCC(=O)O)cc1` displayed a relative growth of 1.03.
With `COCC(=O)N[C@H]1C=C[C@@H](CC(=O)N2CCCCC2)O[C@H]1CO`, the relative growth is 1.06.
`O=C(C[C@H]1C=C[C@H](NS(=O)(=O)c2ccc(F)cc2)[C@H](CO)O1)NCc1ccc(Cl)c(Cl)c1` gave a relative growth of 0.962.
The figure for `O=c1cc(-c2ccc(O)cc2)oc2cc(O)cc(O)c12` is 0.947; for `NCCC(=O)NCCc1cnc[nH]1` it is 0.813.
In the case of `C[C@@H]1CN([C@@H](C)CO)S(=O)(=O)c2ccc(C#Cc3ccc(F)cc3)cc2O[C@@H]1CN(C)S(=O)(=O)c1cn(C)cn1` it was 1; in that of `CC(=O)NCCCC[C@@H]1NC(=O)[C@@H]2C[C@H](C(=O)NCCCCN(C)C)[C@H](c3ccc(O)cc3)N2C1=O`, 1.01.
In the case of `CS(=O)(=O)c1nnnn1-c1ccc2c(c1)OCO2` it was 1.08; in that of `C[C@@H]1CN([C@H](C)CO)S(=O)(=O)c2ccc(C#CC3CC3)cc2O[C@@H]1CN(C)C(=O)Cc1ccncc1`, 1.02; in that of `O=C(C[C@H]1C[C@H]2c3cc(NC(=O)c4ccc5c(c4)OCO5)ccc3O[C@H]2[C@H](CO)O1)NCc1ccccn1`, 1.1.
In turn, `C[C@H](CO)N1C[C@H](C)[C@@H](CN(C)C(=O)Cc2ccncc2)Oc2ncc(C#CC3(O)CCCC3)cc2C1=O` had a relative growth of 1.08.
Turning to `O=C(C[C@@H]1C[C@H]2c3cc(NC(=O)Cc4ccncc4)ccc3O[C@H]2[C@H](CO)O1)NCc1ccc2c(c1)OCO2`, the relative growth is 0.954.
As to `CC(C)NC(=O)[C@@H]1c2ccccc2C(=O)N(Cc2cc(F)cc(C(F)(F)F)c2)[C@H]1c1ccc(CO)cc1`, the relative growth amounted to 0.873.
In the case of `CCN1CCC[C@@H]1CN1CNC(=S)NC1` it was 0.892; in that of `NNC(=O)c1ccccn1`, 1.01; in that of `COC(=O)c1cn(CC(N)=O)c2ccccc12`, 1.12.
`COCCOC(=O)N1C(=O)[C@@]2(c3cc(C#Cc4ccc(OC)cc4)ccc31)[C@H](C(=O)NC[C@H](O)c1ccccc1)[C@H]1C(=O)O[C@H](c3ccccc3)[C@H](c3ccccc3)N1[C@@H]2c1ccc(O)cc1` displayed a relative growth of 0.85.
In the case of `Cc1nn(-c2nc3c(c(=O)n(CC(N)=O)c(=O)n3C)n2C)c(C)c1C`, the relative growth is 1.77.
In turn, `CO[C@H]1CN(C)C(=O)c2ccc(NC(=O)Nc3ccc(Cl)cc3)cc2OC[C@@H](C)N(C(=O)Nc2c(C)noc2C)C[C@H]1C` returned a relative growth of 1.01.
`O=C(CCCCCC(=O)N/N=C/[C@H](O)[C@@H](O)[C@H](O)[C@H](O)CO[C@H]1O[C@H](CO)[C@H](O)[C@H](O)[C@H]1O)NO` came in with a relative growth of 0.91.
In the case of `CC(N/C(=N/C#N)Nc1ccncc1)C(C)(C)C` (centres undefined) it was 1.05; in that of `CC(=O)OCC(COC(C)=O)OC(C)=O`, 1.03; in that of `CCCCCCCCCCCCCCCC(=O)OCC(O)[C@H]1OC(=O)C(O)=C1O` (some centres undefined), 1.23.
In the case of `C[C@@H]1COCCC(=O)N1` it was 1.12; in that of `CC1CN(c2c(F)c(N)c3c(=O)c(C(=O)O)cn(C4CC4)c3c2F)C[C@H](C)N1` (some centres undefined), 0.172; in that of `c1ccc(-c2[nH]nc3ccccc23)cc1`, 0.925.
In the case of `O=c1ncccn1[C@@H]1O[C@H](CO)[C@@H](O)[C@H]1O` it was 0.999; in that of `O=C(C[C@H]1C=C[C@H](NC(=O)Cc2ccccn2)[C@@H](CO)O1)NCCc1ccncc1`, 1.05; in that of `O=C(C[C@H]1CC[C@H]2[C@@H](COC[C@@H](O)CN2C(=O)Nc2cccc(F)c2)O1)NCCCN1CCOCC1`, 0.997.
The molecule `Cc1cc(C)c(S(N)(=O)=O)cc1S(N)(=O)=O` yielded a relative growth of 0.929.
`NC(CO)(CO)CO` displayed a relative growth of 0.881.
The figure for `O=c1[nH]cnc2c1ncn2C1O[C@H](CO)[C@@H](O)[C@H]1O` (some centres undefined) is 0.985; for `COc1ccc([C@H]2COc3c(ccc(O)c3OC)C2)c(OC)c1O` it is 0.857.
`CN1CCN(C(=O)C[C@H]2CC[C@@H]3[C@H](COC[C@@H](O)CN3Cc3ccc4c(c3)OCO4)O2)CC1` displayed a relative growth of 0.858.
`COc1ccc2c(c1)OCc1c-2oc2cc(OC)ccc12` registered a relative growth of 1.04.
For the molecule `CCOc1nc2ccccc2c(=O)n1CCO`, the relative growth came to 1.06.
For the molecule `Cc1ccc(S(=O)(=O)NCCC(=O)O)cc1`, the relative growth is 1.05.
`C(=N\c1ccccc1)/c1ccc(Oc2ccccc2)cc1` showed a relative growth of 1.15.
For the molecule `C[C@@H]1CCCCO[C@@H](CN(C)Cc2ccc3c(c2)OCO3)[C@@H](C)CN([C@H](C)CO)C(=O)c2cc(NS(=O)(=O)c3cccs3)ccc2O1`, the relative growth is 1.06.
Molecule `COCC(=O)N1C[C@H](C)[C@@H](OC)CN(C)C(=O)c2ccc(NC(=O)c3cc(C)on3)cc2OC[C@H]1C` showed a relative growth of 1.2.
`C[C@@H](NC(=O)C[C@@H]1CC[C@H](NC(=O)CN2CCOCC2)[C@@H](CO)O1)c1ccccc1`: the relative growth amounted to 0.923.
